Measured values published in patent publication US20240391959A1, “BICYCLIC PEPTIDE LIGANDS […] FOR TRANSFERRIN RECEPTOR 1 (TfR1)” (BicycleTx Limited, priority 2020, published 2024).
Where two headings read alike, the source gives them in different places.

Sequences of proteins named here, by UniProt entry; tags and fusion partners are left off. Residues count along the entry.
UniProt P02786, 89-760: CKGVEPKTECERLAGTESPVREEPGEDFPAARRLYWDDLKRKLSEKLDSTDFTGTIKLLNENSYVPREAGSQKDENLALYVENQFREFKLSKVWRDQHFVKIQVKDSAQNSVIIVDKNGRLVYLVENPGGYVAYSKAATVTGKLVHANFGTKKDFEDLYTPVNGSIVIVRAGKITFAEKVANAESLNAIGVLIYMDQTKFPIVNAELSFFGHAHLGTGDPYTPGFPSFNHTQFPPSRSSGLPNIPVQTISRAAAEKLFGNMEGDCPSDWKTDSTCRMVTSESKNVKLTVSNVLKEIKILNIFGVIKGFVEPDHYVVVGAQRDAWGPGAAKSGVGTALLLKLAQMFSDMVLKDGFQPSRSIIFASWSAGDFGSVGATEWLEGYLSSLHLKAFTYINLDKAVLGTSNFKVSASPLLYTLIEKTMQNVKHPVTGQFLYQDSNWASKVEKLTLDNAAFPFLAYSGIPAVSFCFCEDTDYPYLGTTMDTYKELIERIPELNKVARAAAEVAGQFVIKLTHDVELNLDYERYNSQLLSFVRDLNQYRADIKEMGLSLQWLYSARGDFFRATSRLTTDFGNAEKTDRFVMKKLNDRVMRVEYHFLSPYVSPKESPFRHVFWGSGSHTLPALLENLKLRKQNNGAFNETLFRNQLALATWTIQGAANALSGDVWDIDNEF

Tests used:
human TfR1 [1] = biological target: T1, human TfR1 (Homo sapiens, UniProt P02786); experiment: TfR1 direct binding assay (fluorescence polarisation); parameters: His6-tagged TfR1 (a.a. 89-760) (ACRO Biosystems, CD1-H5243 and TFR-C524a); His6; purchased R&D Systems or Acro Biosystems 2474-TR or CD1-H5243; conditions: read-out: Geomean Kd (μM) Human TfR1; FP direct binding, fluorescein-labelled peptide
Method: Affinity of the peptides of the invention for human or cynomolgus TfR1 (Kd) was determined using a fluorescence polarisation assay, in accordance with the following method. Peptides of the invention were labelled with a fluorescent tag (fluorescein) and diluted to 2.5 nM in 25 mM HEPES with 100 mM NaCl, 4 mM CaCl2 and 0.005% P20, pH 7.4. TfR1 protein (Human: R&D Systems, 2474-TR or Acro Biosystems, CD1-H5243; Cyno: Acro Biosystems, TFR-C524a) was titrated starting at 1-5 μM in the same assay buffer as the peptide to assay 1 nM peptide in a total volume of 25 μL in black walled and bottomed low bind low volume 384 well plates. The assay was typically set up by adding 5 μL assay buffer, 10 μL TfR1 protein then 10 μL fluorescent peptide. The concentrations of TfR1 protein were 1 in 2 serial dilutions to give 12 different concentrations starting at 1-5 μM. Measurements were conducted on a BMG PHERAstar FS equipped with an FP 485 520 520 optic module at 25° C. with 200 flashes per well and a positioning delay of 0.1 second. Each well was measured every 5 minutes for 60 minutes. The gain used for analysis was determined for each tracer at the end of the 60 minutes where there was no protein in the well. The mP were fit to a standard 1:1 binding model with a quadratic equation to generate a Kd value.

human TfR1 [2] = biological target: T1, human TfR1; format: binding; parameters: His6-tagged TfR1 (a.a. 89-760) (ACRO Biosystems, CD1-H5243 and TFR-C524a); His6; purchased R&D Systems or Acro Biosystems 2474-TR or CD1-H5243
[3] = competition with 1 nM BCY15768, 200 nM human TfR1, Table 5, read-out: Geomean Ki
[4] = competition with BCY15768, Table 6, read-out: Human TfR1 Ki
[5] = read-out: Human TfR1 Ki, competition with BCY15768, Table 6

Substance | Kd (human TfR1 [1]) [µM] | Ki (human TfR1 [2]; [3]) [nM] | Ki (human TfR1 [2]; [4]) [nM] | Ki (human TfR1 [2]; [5]) [nM]
A-(SEQ ID NO: 3)-A-[Sar6]-[K-Fl] [BCY12651] | 0.971 |  |  | 
Ac-(SEQ ID NO: 7) [BCY15890] |  | 47 |  | 
Ac-A-(SEQ ID NO: 9)-A [BCY15939] |  | 125 | 125 | 
[FI]G[Sar5]-A-(SEQ ID NO: 9)-A [BCY15940] | 0.054 |  |  | 54
NWN-(SEQ ID NO: 9)-[K(N3)] [BCY17870] |  |  | 9 | 
Ac-(SEQ ID NO: 12) [BCY15894] |  | 392 | 392 | 
Ac-(SEQ ID NO: 10) [BCY15892] |  | 63 | 63 | 
A-(SEQ ID NO: 4)-A-[Sar6]-[K-FI] [BCY14474] | 0.751 |  |  | 
Ac-(SEQ ID NO: 44)-[K(N3)] [BCY17879] |  |  | 32 | 
Ac-(SEQ ID NO: 11) [BCY15893] |  | 44 | 44 | 
(SEQ ID NO: 9)-[Sar6]-[K-FI] [BCY15934] | 0.064 |  |  | 63
Ac-(SEQ ID NO: 9)-[Sar6]-[K-FI] [BCY15938] | 0.06 |  |  | 60
N[dW]N-(SEQ ID NO: 9) [BCY18031] |  | 20 | 17 | 
Ac-(SEQ ID NO: 14)-[K(N3)] [BCY17875] |  |  | 13 | 
Ac-(SEQ ID NO: 9)-[K(N3)] [BCY17868] |  |  | 23 | 
CiSPDAHLGCiiISYCiii [BCY15935] |  | 300 | 300 | 
NWN-(SEQ ID NO: 9) [BCY18029] |  | 8 | 6 | 
N[1Nal]N-(SEQ ID NO: 9) [BCY18030] |  | 5 | 7 | 
A-(SEQ ID NO: 2)-A-[Sar6]-[K-Fl] [BCY12650] | 0.862 |  |  | 
Ac-(SEQ ID NO: 15)-[K(N3)] [BCY17877] |  |  | 29 | 
Ac-NWN-(SEQ ID NO: 9)-[K(N3)] [BCY17871] |  |  | 9 | 
N[NMeTrp]N-(SEQ ID NO: 9) [BCY18032] |  | 105 | 77 | 
Ac-(SEQ ID NO: 9)-EPW-[K(N3)] [BCY17873] |  |  | 13 | 
Ac-(SEQ ID NO: 15) [BCY17989] |  | 30 | 24 | 
Ac-(SEQ ID NO: 9)-A-[Sar6]-[K-FI] [BCY15937] | 0.034 |  |  | 34
